Assay results: patent US9498467B2, “Treatment of chronic neutrophilic leukemia (CNL) and atypical chronic myeloid leukemia (aCML) by inhibitors of JAK1” (Incyte Corporation, priority 2014, dated 2016)

By UniProt entry, the sequences of proteins in these tests, tags left out. Residues count along the entry.
UniProt P23458, 849-1154: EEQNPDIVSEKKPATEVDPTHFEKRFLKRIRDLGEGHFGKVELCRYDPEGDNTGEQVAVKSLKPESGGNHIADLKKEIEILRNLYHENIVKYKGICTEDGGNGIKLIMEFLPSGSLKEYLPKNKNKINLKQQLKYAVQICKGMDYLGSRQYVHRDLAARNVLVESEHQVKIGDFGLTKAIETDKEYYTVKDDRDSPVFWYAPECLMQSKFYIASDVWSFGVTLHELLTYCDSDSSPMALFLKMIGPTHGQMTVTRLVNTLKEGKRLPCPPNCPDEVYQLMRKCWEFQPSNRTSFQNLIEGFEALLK

Target: T1, human JAK1 (a.a. 837-1142) (Homo sapiens, UniProt P23458)
T1 construct: human JAK1 (a.a. 837-1142); made in house; host or cells: insect cells (baculovirus)
Experiment: In vitro JAK kinase assay (HTRF), JAK1
Format: biochemical
Details: 1 mM ATP

CN(C)Cc1cc(F)cc(OC2CCN(CC(CC#N)n3cc(-c4ncnc5[nH]ccc45)cn3)CC2)c1 (single isomer, unassigned) [Compound 14, 4-(4-{3-[(dimethylamino)methyl]-5-fluorophenoxy}piperidin-1-yl)-3-[4-(7H-pyrrolo[2,3-d]pyrimidin-4-yl)-1H-pyrazol-1-yl]butanenitrile]
IC50: < 10 nM
